Amino acid sequences for entries named in this document (tags omitted).
Guanine nucleotide-binding protein G(i) subunit alpha-3 (Rattus norvegicus), P08753, UniProt P08753, whole entry, looked up: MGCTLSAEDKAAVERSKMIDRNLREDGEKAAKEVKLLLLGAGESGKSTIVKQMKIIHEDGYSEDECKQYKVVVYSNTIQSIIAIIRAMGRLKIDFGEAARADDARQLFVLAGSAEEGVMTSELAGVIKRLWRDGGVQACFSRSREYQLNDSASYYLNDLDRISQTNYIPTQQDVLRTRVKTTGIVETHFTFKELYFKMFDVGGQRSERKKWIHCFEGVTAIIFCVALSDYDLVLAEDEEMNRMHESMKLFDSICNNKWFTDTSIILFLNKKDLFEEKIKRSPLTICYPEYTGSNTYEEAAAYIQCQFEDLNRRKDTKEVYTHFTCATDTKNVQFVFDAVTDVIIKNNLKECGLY

# High-throughput results from PubChem.
# GIV Gai3 FP = inhibitors of GIV peptide binding to Galpha-i3, primary screen, biochemical, fluorescence polarization, FITC-GIV GBA peptide, rat Galphai3; hit rate 0.42% among 210,000; percent of control (FP), % (concentration not given with the values); 90 min; stronger effect = lower value; scaled: aluminum fluoride 0%, vehicle 100%; Guanine nucleotide-binding protein G(i) subunit alpha-3 (Rattus norvegicus), P08753;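 active = replicate mean at 85% of control or lower, very high polarization wells dropped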;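 note: wells of about 15 µL received 100 nL stock; the first replicate is given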
# HCMV NEC inh = inhibitors of HCMV UL50-UL53 interaction, biochemical, HTRF; HCMV UL50-UL53 nuclear egress complex (human cytomegalovirus); normalized percent inhibition; inhibition, % (concentration not given with the values); 0.15% of 190,000 active; AID 1918969, 2023; in the data active = inhibition above about 27%, passing the limit was not always enough
# Active calls of the source: *; . = not tested or not shown; ! = repeats disagree. Shown are actives, neighbours in structure and some others; about 0.43% of the full set was active somewhere.
# The line under a structure holds: HCMV NEC inh | GIV Gai3 FP
1. CN(C)c1ccc(/C=C2/CCC/C(=C\c3ccc(N(C)C)cc3)C2=O)cc1
    -15 | 188
2. CC(C)/C=C1\CC/C(=C\c2ccc(N(C)C)cc2)C1=O
    . | -75*
3. CCN(CC)c1ccc(/C=N/NC=O)c(O)c1
    -35 | .
4. CCN(CC)c1ccc(C=C2C(=O)c3ccccc3C2=O)c(O)c1
    -58 | -64*
5. CCN(CC)c1ccc2cc(C(=O)NC3CCCCC3)c(=O)oc2c1
    -24 | .
6. CCN(CC)c1ccc2cc(C(=O)Nc3cccc(C(F)(F)F)c3)c(=O)oc2c1
    -5 | 102
7. CCN(CC)c1ccc2cc(C(=O)Nc3ccc(NC(C)=O)cc3)c(=O)oc2c1
    -16 | 83*
8. CCN(CC)c1ccc2cc(NC(=O)CCC(=O)O)c(=O)oc2c1
    -38 | 84*
9. CCC1CCCCN1C(=O)C1=CC(c2ccccc2OC)=NS(=O)(=O)N1C (stereo not given)
    -26 | 102
10. Cc1ccc(N2C(=O)CSC2c2ccc([N+](=O)[O-])cc2)c(Br)c1 (stereo not given)
    -35 | 102
11. Clc1ccc(N2CCN(c3ccc(Cl)cc3)C2c2ccccc2)cc1
    . | 103
12. COc1cccc(C(=O)c2sc3nsc(SCc4ccccc4)c3c2N)c1
    -39 | -42*
13. COc1cccc(C(=O)Nc2nnc(SCc3ccccc3)s2)c1
    -8 | .
14. O=S(=O)(c1ccc2nsnc2c1)N1CCCCC1c1cccnc1 (stereo not given)
    -58 | 102
15. O=S(=O)(c1ccc2c(c1)OCCO2)N1CCCCC1c1cccnc1 (stereo not given)
    -17 | -71*
16. Cc1cc(=O)[nH]c(Sc2c(C)c3cc4c(cc3[nH]c2=O)OCO4)n1
    -34 | 103
17. Cc1ccc(C(=O)N/N=C/c2c[nH]c3ccccc23)cn1
    -56 | 104
18. Cc1ccc(C(=O)NC2(O)C(=O)c3ccccc3C2=O)cn1
    54* | 94
19. Cc1c(Cl)cccc1NC(=O)CCn1c(C(F)(F)F)nc2cc(S(=O)(=O)N(C)C)ccc21
    -29 | 102
20. CCCCn1c(CNC(=O)C(C)(C)C)nc2ccccc21
    -7 | .
21. CN(C)c1ccc(/C=C2/SC(=S)N(CC(=O)O)C2=O)cc1
    -20 | -61*
22. O=C(O)CN1C(=O)/C(=C\c2ccc(O)cc2)SC1=S
    -124 | 196
23. CN(C)/C=C/C(=O)c1cccs1
    -82 | 103
24. O=c1cc(N2CCN(S(=O)(=O)c3ccc(F)c(F)c3)CC2)nc2sc(-c3ccccc3)nn12
    60* | 102
25. Cc1ccc(S(=O)(=O)N2CCN(c3cc(=O)n4nc(-c5ccccc5)sc4n3)CC2)cc1
    34 | 104
26. Cc1csc2c(=O)sc(NC(=O)c3ccco3)nc12
    33 | 103
27. Cc1csc2c(=O)sc(NC(=O)c3cccs3)nc12
    58* | 103
28. O=c1oc2c(CN3CCCC3)c(O)ccc2cc1-c1ccccc1
    . | 115
29. CCOc1cccc2cc(-c3nc4ccccc4s3)c(=O)oc12
    . | 143
30. CCN(CC)Cc1c(O)ccc2cc(-c3nc4ccccc4s3)c(=O)oc12
    . | -18*
31. CC1CCCN(Cc2c(O)ccc3cc(-c4nc5ccccc5s4)c(=O)oc23)C1 (stereo not given)
    -82 | -32*
32. N#CCCN(Cc1cccs1)S(=O)(=O)c1ccc(-c2ccccn2)s1
    9 | 104
33. CCN(CC)c1ccc(/C=C2\SC(=S)N(c3c(C)n(C)n(-c4ccccc4)c3=O)C2=O)cc1
    . | 26*
34. CCN(CC)c1ccc(N2C(=O)/C(=C/c3ccccc3)SC2=S)cc1
    -8 | .
35. COc1ccc2cc3cc(C(=O)NCC4CCN(Cc5cccc(C)c5)CC4)sc3nc2c1
    . | 100
36. COc1ccc(C(=O)Nc2nc3n(n2)C(c2ccc(F)cc2)C=C(c2ccc(Cl)cc2)N3)cc1 (stereo not given)
    -17 | -66*
37. Cc1ccc(C2C=C(c3ccc(Cl)cc3)Nc3nc(NC(=O)c4ccco4)nn32)cc1 (stereo not given)
    -52 | 33*
38. Cc1ccc(S(=O)(=O)Nc2nc3n(n2)C(c2ccc(Cl)cc2)C=C(c2ccc(Cl)cc2)N3)cc1 (stereo not given)
    -20 | 113
39. O=C(Nc1nc2n(n1)C(c1ccc(F)cc1)C=C(c1ccccc1)N2)c1ccc(Cl)cc1 (stereo not given)
    -27 | 141
40. Cc1ccc(S(=O)(=O)Nc2nc3n(n2)C(c2ccc(Cl)cc2)C=C(c2ccccc2)N3)cc1 (stereo not given)
    -54 | -66*!
41. COc1ccccc1C(=O)Nc1nc2n(n1)C(c1ccc(F)cc1)C=C(c1ccc(Cl)cc1)N2 (stereo not given)
    -35 | 125
42. COc1cc2c(=O)n(Cc3ccc(C(=O)NC(C)C)cc3)c(=O)n(CC(=O)N3CCCCC3C)c2cc1OC (stereo not given)
    -30 | 105
43. Cc1ccc(-c2nc(CS(=O)(=O)CC(=O)NCC3CCCO3)c(C)o2)cc1 (stereo not given)
    . | 102
44. Cc1ccc(S(=O)(=O)N2CCN(C(=O)COC(=O)c3ccc(O)cc3)CC2)cc1
    -3 | .
45. O=c1c2ccccc2n2c(-c3ccc(F)c(F)c3)nnc2n1CCc1ccccc1
    -7 | 95

# 6 of the entries above in order of the GIV Gai3 FP value, descending.
no. | Structure | GIV Gai3 FP
39 | O=C(Nc1nc2n(n1)C(c1ccc(F)cc1)C=C(c1ccccc1)N2)c1ccc(Cl)cc1 (stereo not given) | 141
17 | Cc1ccc(C(=O)N/N=C/c2c[nH]c3ccccc23)cn1 | 104
23 | CN(C)/C=C/C(=O)c1cccs1 | 103
33 | CCN(CC)c1ccc(/C=C2\SC(=S)N(c3c(C)n(C)n(-c4ccccc4)c3=O)C2=O)cc1 | 26*
30 | CCN(CC)Cc1c(O)ccc2cc(-c3nc4ccccc4s3)c(=O)oc12 | -18*
31 | CC1CCCN(Cc2c(O)ccc3cc(-c4nc5ccccc5s4)c(=O)oc23)C1 (stereo not given) | -32*

# A different layout for part of the listing above:
40	Cc1ccc(S(=O)(=O)Nc2nc3n(n2)C(c2ccc(Cl)cc2)C=C(c2ccccc2)N3)cc1 (stereo not given)
  HCMV NEC inh = -54
  GIV Gai3 FP = -66*!
22	O=C(O)CN1C(=O)/C(=C\c2ccc(O)cc2)SC1=S
  HCMV NEC inh = -124
  GIV Gai3 FP = 196

# The results go on.
# The line under a structure holds: HCMV NEC inh | GIV Gai3 FP
46. O=c1c2ccccc2n2c(-c3ccc(Cl)cc3)nnc2n1CCc1ccccc1
    59* | 100
47. CCCC(=O)Nc1c2c(nc3ccccc13)N(Cc1ccccc1)CC2
    12 | 97
48. CC(C)(C)n1ccc(-c2cc(F)cc(F)c2O)n1
    5 | 101
49. O=C1Cc2ccccc2C(=O)N1
    100* | .
50. O=C1CC(=O)Nc2ccccc2N1
    -18 | 100
51. COc1ccc(O)c(C(=O)c2cnn(C(=S)Nc3ccccc3)c2N)c1
    -27 | .
52. Cc1ccccc1NC(=O)C(C)Sc1nc2ccccc2c(=O)n1C (stereo not given)
    -17 | 100
53. CC(Sc1nc2ccccc2c(=O)n1C)C(=O)Nc1ccc2c(c1)OCCO2 (stereo not given)
    34* | .
54. CCC(=O)OCCCNc1nc(-c2ccc(Cl)cc2)nc2ccccc12
    -4 | 99
55. N#C/C(=C\c1ccc(-c2ccccc2)o1)c1ccccc1
    9 | 137
56. N#C/C(=C\c1ccc(N2CCCC2)o1)c1ccccc1
    -19 | -49*
57. c1ccc(-c2nc(CSc3nncn3-c3ccccc3)cs2)cc1
    -32 | .
58. O=C(c1cc2n(n1)C(C(F)(F)F)CC(c1ccc3c(c1)OCO3)N2)N1CCN(c2cccc(Cl)c2)CC1 (stereo not given)
    . | 98
59. Cc1ccc(N=Cc2nc(-c3cccc4ccccc34)oc2O)c(Br)c1
    . | 25*
60. COc1cc(-c2nc(C=Nc3ccc(C)cc3Br)c(O)o2)cc(OC)c1OC
    . | 110
61. CCOP(=O)(OCC)C(Nc1ccc([N+](=O)[O-])cc1)c1ccccc1 (stereo not given)
    . | 106
62. CC(=O)n1c(/C=C2\C=c3ccccc3=NC2=O)c(O)[nH]c1=S
    15 | 49*
63. CC(=O)n1c(O)c(/C=C2\C=c3ccc(C)cc3=NC2=O)sc1=N
    . | 111
64. N#Cc1ccc(S(=O)(=O)N2CCNCC2)cc1
    -4 | 104
65. CCOC(=O)C1CCC(CN(Cc2cccc(Br)c2)S(=O)(=O)c2ccc(Cl)cc2)CC1 (stereo not given)
    . | 106
66. CC(C)NCC(O)COc1ccccc1 (stereo not given)
    25 | 104
67. CC(COc1ccccc1)N(CCCl)Cc1ccccc1 (stereo not given)
    89*! | 99
68. Cn1cccc1/C=C1\CCc2ccccc2C1=O
    . | 144
